Results from patent publication US4808517A (priority 1985, dated 1989).

System: submitochondrial particles
Details: 25° C., 1-cm cuvette, absorbance 2 min after ATP addition

| Molecule | Toxicant Dose Response for EC50, Test Results |
| --- | --- |
| Cc1cc([N+](=O)[O-])cc([N+](=O)[O-])c1O | 1,260 parts per billion |
| Zinc | 1,600 parts per billion |
| Lead | 280 parts per billion |
